Source: PubChem BioAssay (National Center for Advancing Translational Sciences (NCATS))
TDP1 cell noCPT: qHTS for Inhibitors of human tyrosyl-DNA phosphodiesterase 1 (TDP1): qHTS in cells in absence of CPT. 420,000 compounds, 15% hits. Potency, µM (top dose mostly 46.2 µM), inactives show top-dose activity change, negative = growth inhibition, hits mostly inhibitors. DT40 Tdp1-/- hTDP1 cells, no CPT, ATP luminescence, 48 h; further: potency means the concentration at half of the fitted maximal effect; on the % scale 0 is the no-effect control and ±100 the full control effect; nearly all actives have a fitted effect of over 55% in size
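No-CPT arm: Tdp1-/-;hTDP1 DT40 cells (400/well) plus compounds, incubated ≥48 hr at 37 °C. Readout CellTiter-Glo luminescence.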
DT40 TDP1 CPT: growth inhibition of DT40 Tdp1-/-;hTDP1 cells with camptothecin (screen for TDP1 inhibitors); chicken DT40 Tdp1-/-;hTDP1 cells + 20 nM CPT, ATP luminescence, 48 h; Potency, µM (doses to about 46.2 µM), for inactives: at the highest dose activity change, negative = growth inhibition, usual class: inhibitors; 420,000 compounds, 12% hits; AID 686979; further: potency means the concentration at half of the fitted maximal effect; on the % scale 0 is the no-effect control and ±100 the full control effect; nearly all actives have a fitted effect of over 55% in size
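Chicken DT40 Tdp1-/- cells complemented with human TDP1, 400 cells/well, exposed to compounds plus 20 nM camptothecin for at least 48 h at 37 C; viability read as ATP content by CellTiter-Glo luminescence.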
TDP1 inh: inhibitors of human tyrosyl-DNA phosphodiesterase TDP1. AID 485290. 350,000 compounds, 0.28% hits. recombinant TDP1, AlphaScreen DNA substrate cleavage. Q9NUW8. Potency, µM (series often up to 130 µM), inactives show top-dose activity change, negative = inhibition, hits mostly inhibitors; further: potency means the concentration at half of the fitted maximal effect; on the % scale 0 is the no-effect control and ±100 the full control effect; nearly all actives have a fitted effect of over 40% in size
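E. coli-derived human Tdp1, 1 nM final. Cpd preinc 15 min RT; substrate 15 nM final, 5 min RT; AS bead mix 10 ug/ml final, 10 min RT. Signal loss = tyrosine-FITC cleavage. No-enzyme wells = max signal.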
uPA generation: blocks generation of uPA at the cell surface; Potency, µM (highest dose often 38.3 µM), for inactives: at the top dose activity change, negative = inhibition, usual class: inhibitors; cell surface uPA generation assay, qHTS; 330,000 compounds, 0.31% hits; active means well fitted inhibition curve with a large enough effect; inconclusive means small, poorly fitted or top-dose-only effect; inactive means no such curve, though single readings can be large or run the other way; tested in mouse RAW 264.7 cells; further: potency means the concentration at half of the fitted maximal effect; on the % scale 0 is the no-effect control and ±100 the full control effect; nearly all actives have a fitted effect of over 55% in size
miR-21 FLuc: miR-21 reporter, rising signal | AID 2288 | HeLa miR-21 FLuc reporter, luciferase, 48 h | 340,000 tested, under 10 active | Potency, µM (titrated, usually from 38.3 µM), for the others: at the top dose reporter change, positive = more light; active = well fitted rising curve with a large enough effect; inconclusive = small, poorly fitted or top-dose-only effect; inactive = no such curve, though single readings can be large or run the other way;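 also: % of control where 0% means no effect; miR-21 action dims this reporter so a rising signal means less miR-21 action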
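HeLa cells endogenously expressing miR-21, stably carrying CMV-driven firefly luciferase with a downstream miR-21 binding site, 2000 cells/well. Titrations up to approximately 40 uM, 48 hours; luciferase luminescence read.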
* marks the source's active call; other numbers are inactive results; ? = inconclusive; nt = no result; [ ] = dose if it differs, or a comment. Shown are actives, neighbours in structure and some others; about 16% of the full set was active somewhere. Unless noted, the call rests on the fitted dose curve; in most records, active means well fitted curve in the direction sought with a large enough effect; inconclusive means small, poorly fitted or top-dose-only effect, or another doubt; inactive means no such curve, though single readings can be large; an effect the other way counts as inactive or inconclusive.

#1 CCOc1ccc(Nc2nc(N3CCCC3)nc(N3CCN(c4ccc(OC)cc4)CC3)n2)cc1
#2 CCOc1nc(Nc2ccc(F)cc2)nc(N2CCN(c3ccc(OC)cc3)CC2)n1
#3 Cc1ccc(C)c(Cn2c3ccccc3c3cnn(CC(=O)NCCCN4CCOCC4)c(=O)c32)c1
#4 Cn1cc(S(=O)(=O)N2CCCCCC2)cc1C(=O)N1CCN(c2cccc(Cl)c2)CC1
#5 Cn1cc(S(=O)(=O)N2CCCCCC2)cc1C(=O)N1CCN(c2cccc(C(F)(F)F)c2)CC1
#6 Cn1cc(S(=O)(=O)N2CCCC2)cc1C(=O)N1CCN(c2cccc(Cl)c2)CC1
#7 COc1ccc(N2CCN(C(=O)c3cc(S(=O)(=O)N4CCC(C)CC4)cn3C)CC2)cc1
#8 COC(=O)c1cc(S(=O)(=O)N2CCN(c3ccc(OC)cc3)CC2)cn1C
#9 CCn1c(Cc2ccccc2)nnc1SCC(=O)Nc1ccc(C)cc1
#10 CCOc1ccc(S(=O)(=O)N(CC(=O)NCc2cccnc2)c2ccc(F)cc2)cc1
compound no.	1	2	3	4	5	6	7	8	9	10
TDP1 cell noCPT	16µM*	15µM*	?	?	23µM*	?	21µM*	-10%	-10%	18µM*
DT40 TDP1 CPT	?	?	?	15µM*	16µM*	?	23µM*	-24%	-16%	?
TDP1 inh	6%	5%	5%	1%	5%	-4%	5%	4%	2%	7%
uPA generation	-4%	-9%	-5%	nt	nt	?	nt	-5%	-8%	0%
miR-21 FLuc	0%	-1%	2%	16%	15%	17%	-11%	0%	-4%	14%

#11 CCOc1ccc(S(=O)(=O)N(CC(=O)NCc2cccnc2)c2ccc(C)cc2)cc1
#12 Cc1ccc(S(=O)(=O)N(CC(=O)NCc2cccnc2)c2ccc(F)cc2)cc1
#13 Cc1cc(C(=O)N2CCN(S(=O)(=O)c3ccc(F)c(Cl)c3)CC2)c(C)o1
#14 O=C(Nc1ccc(F)cc1)C1CCN(S(=O)(=O)c2ccc3c(c2)CCCN3C(=O)C2CCC2)CC1
#15 CCN(C(=O)C1CCN(S(=O)(=O)c2ccc3c(c2)CCCN3C(=O)C2CCC2)CC1)c1cccc(C)c1
#16 COC(=O)c1ccc(NC(=O)C2CCN(S(=O)(=O)c3ccc4c(c3)CCCN4C(C)=O)CC2)cc1
#17 CC1CCN(S(=O)(=O)c2ccc3c(c2)CCN3C(=O)C2CCC2)CC1
#18 Cc1ccc(NC(=O)C2CCN(S(=O)(=O)c3ccc4c(c3)CCCN4C(=O)C3CCC3)CC2)cc1
#19 COc1cccc(/C=C2\SC(=S)N(CC(=O)N(C)C3CCS(=O)(=O)C3)C2=O)c1 (stereo not given)
#20 O=C(CO/N=C1\CCCc2nonc21)Nc1ccc(Br)cc1
compound no.	11	12	13	14	15	16	17	18	19	20
TDP1 cell noCPT	?	18µM*	?	8.2µM*	18µM*	?	?	?	-1%	?
DT40 TDP1 CPT	?	-25%	?	18µM*	16µM*	?	?	16µM*	?	?
TDP1 inh	-3%	10%	5%	2%	3%	2%	0%	-1%	5%	8%
uPA generation	2%	1%	?	nt	nt	nt	-1%	nt	0%	5%
miR-21 FLuc	-1%	0%	nt	?	?	9%	-1%	26%	0%	-10%

Ordered by heavy-atom count (smallest number first): 4 of the compounds above.
#20 O=C(CO/N=C1\CCCc2nonc21)Nc1ccc(Br)cc1
#12 Cc1ccc(S(=O)(=O)N(CC(=O)NCc2cccnc2)c2ccc(F)cc2)cc1
#1 CCOc1ccc(Nc2nc(N3CCCC3)nc(N3CCN(c4ccc(OC)cc4)CC3)n2)cc1
#3 Cc1ccc(C)c(Cn2c3ccccc3c3cnn(CC(=O)NCCCN4CCOCC4)c(=O)c32)c1
compound no.	20	12	1	3
TDP1 cell noCPT	?	18µM*	16µM*	?
DT40 TDP1 CPT	?	-25%	?	?
TDP1 inh	8%	10%	6%	5%
uPA generation	5%	1%	-4%	-5%
miR-21 FLuc	-10%	0%	0%	2%

The list continues.
#21 CC1CCCCC12NC(=O)N(CC(=O)NCCc1ccccc1)C2=O (stereo not given)
#22 CC1=CCC2C(=O)N(c3ccc(S(N)(=O)=O)cc3)C(=O)C2C1 (stereo not given)
#23 Cc1noc(C)c1-c1ccc2ncnc(NCc3ccccc3F)c2c1
#24 O=C(CCCn1c2ccccc2c(=O)c2ccccc21)Nc1ccc(F)cc1Cl
#25 O=C(/C=C/c1ccccc1)N1CCN(c2cccc(Cl)n2)CC1
#26 CC1=NN(Cc2ccccc2)C(=O)C1C(c1ccc(Cl)cc1)C(C#N)C#N (stereo not given)
#27 CC1=NN(Cc2ccccc2)C(=O)C1C(c1ccncc1)C(C#N)C#N (stereo not given)
#28 CC1=NN(Cc2ccccc2)C(=O)C1C(c1ccccc1)C(C#N)C#N (stereo not given)
#29 CCC1=C2CC[C@H]3C(=O)N(C)C(=O)[C@H]3[C@H]2[C@@]2(Cc3ccccc3)C(=NCC3CC3)OC(=O)N2C1=O
#30 COc1ccc(Nc2cc(C(=O)NCCCN3CCN(c4ccccc4F)CC3)c3ccccc3n2)c(OC)c1
compound no.	21	22	23	24	25	26	27	28	29	30
TDP1 cell noCPT	1%	-2%	nt	?	-20%	10µM*	?	26µM*	nt	16µM*
DT40 TDP1 CPT	-7%	3%	nt	?	-26%	10µM*	?	21µM*	nt	?
TDP1 inh	1%	1%	6%	-7%[12.3 µM]	7%	11%	7%	5%	7%	7%
uPA generation	2%	0%	nt	nt	nt	-8%	1%	0%	nt	nt
miR-21 FLuc	nt	3%	nt	18%	0%	4%	13%	4%	nt	?

#31 COc1ccc(Nc2cc(C(=O)NCCCN3CCOCC3)c3ccccc3n2)cc1OC
#32 COc1ccc(N2CCN(CCNC(=O)c3ccc4c(c3)[nH]c(=S)n3c5ccccc5nc43)CC2)cc1
#33 COc1ccc(N2CCN(CCCNC(=O)c3cc(Nc4ccccc4OC)nc4ccccc34)CC2)cc1
#34 COc1ccc(Nc2cc(C(=O)NCCCN3CCN(C)CC3)c3ccccc3n2)cc1OC
#35 Cc1cnc(C(=O)OCC(=O)Nc2cccc3ccccc23)cn1
#36 N/C(=N\N=C\c1ccc(O)cc1)c1nonc1N
#37 CC(C)(C)[C@H]1C=C(C(=O)Nc2ccccc2)O[C@@H](OCc2ccc(CO)cc2)C1
#38 CCN(CC)CCCNC(=O)c1cc(Nc2ccc(OC)cc2)nc2ccccc12
#39 COc1ccc(Nc2cc(C(=O)NCCCN(C)Cc3ccccc3)c3ccccc3n2)c(OC)c1
#40 CCN(CC)CCNC(=O)c1cc(Nc2ccc(OC)c(OC)c2)nc2ccccc12
compound no.	31	32	33	34	35	36	37	38	39	40
TDP1 cell noCPT	?	2.1µM*	?	-18%	0%	-26%	?	23µM*	13µM*	11%
DT40 TDP1 CPT	29µM*	4.6µM*	23µM*	-15%	-6%	-30%	?	18µM*	15µM*	-25%
TDP1 inh	8%	4%	9%	6%	1%	7%	5%	nt	9%	nt
uPA generation	0%	-1%	nt	-2%	-2%	-10%	2%	2%	nt	-2%
miR-21 FLuc	6%	0%	30%	-12%	nt	-49%	-8%	0%	20%	3%

#41 CCN(CCCNC(=O)c1cc(Nc2ccccc2OC)nc2ccccc12)c1cccc(C)c1
#42 COc1ccc(N2CCN(CCCNC(=O)c3cnn(-c4ccc(C)cc4)c3-n3cccc3)CC2)cc1
#43 COc1ccc(Nc2cc(C(=O)NCCCN3CCOCC3)c3ccccc3n2)c(OC)c1
#44 COc1ccc(Nc2cc(C(=O)NCCCN3CCN(c4ccc(OC)cc4)CC3)c3ccccc3n2)cc1
compound no.	41	42	43	44
TDP1 cell noCPT	7.3µM*	5.2µM*	-25%	8.2µM*
DT40 TDP1 CPT	21µM*	5.8µM*	-4%	8.2µM*
TDP1 inh	0%	6%	8%	10%
uPA generation	nt	nt	1%	nt
miR-21 FLuc	6%	6%	8%	?
